This is an account of results in ChEMBL document CHEMBL3351266, “Recent advances in the discovery of small molecule inhibitors of interleukin-1 receptor-associated kinase 4 (IRAK4) as a therapeutic target for inflammation and oncology disorders” (J Med Chem, 2015).

In the assay the test system is PBMC. The assay can be described thus: Inhibition of lipoteichoic acid-induced IL6 production in human PBMC incubated for 30 mins by ELISA method. It counts as functional, cell-based. The following applies: 0.5 h.

`CC(C)Nc1cc(Nc2ncc(Cl)cc2F)ncc1C(=O)NC[C@@H](F)C(C)(C)O`: the midpoint of the response, the EC50, lay at 45 nM.
Regarding `Cc1cc(C#N)cnc1Nc1cc(NC(C)C)c(C(=O)NC[C@@H](F)C(C)(C)O)cn1`, a half-maximal response (EC50) required 62 nM.
